Source: PubChem BioAssay
Shown are actives, neighbours in structure and some others; about 1.8% of the full set was active somewhere.
Cneo AK release: causes C. neoformans cell lysis | AID 651654 | lysis activity, % at 15 µM | adenylate kinase release luminescence, 4 h; normalised: neutral wells 0, clomiphene wells 100 | hit rate 0.2% among 360,000;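 active = mean lysis activity across replicates of at least 80%, whatever share of replicates individually reach that level; inactive = mean lysis activity below 80%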
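Material – log-phase Cryptococcus neoformans yeast cells · Input – 5 × 10^6 yeast cells/mL · Medium – fresh YPD growth medium · Doses – single compound concentration per well · Timing – static 4 h at 37 °C with compound, 1 h detection · Detection – adenylate kinase release luminescence · Read-out – signal increase indicating cell lysis · Control set – Clomiphene as positive lysis control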
Yeast UUG start: modulators of start codon recognition fidelity in yeast; S. cerevisiae UUG-firefly luciferase reporter, luminescence/redox ratio; activity score, % at 18.7 µM; hit rate 0.13% among 350,000; AID 602363;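 active = replicate mean at a twofold rise or more, about +100% in these data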;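 note: firefly luciferase made from a UUG start codon reports start codon fidelity; reporter light over untreated wells divided by growth signal over untreated wells; some hits fall short of that in this replicate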
E-sel inducer: induces E-selectin expression in human endothelial cells; HUVEC E-selectin immunofluorescence imaging; normalized: neutral wells 0, TNF-alpha wells 100; activation, % at 7.58 µM; hit rate 0.37% among 260,000;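 active = mean E-selectin-positive cell signal at least 10% of the positive control, reached in at least 60% of replicates, without over 20% cell loss; inconclusive = no rule given, readout overlaps actives, possibly toxicity-flagged; inactive = the rest, including those meeting only one limit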
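Assay system: HUVEC primary endothelial cells. Input: 3,000 HUVEC seeded per well. Doses: one compound dose added by pin transfer. Read-out basis: % PE-positive cells. Benchmarks: TNF-alpha high, DMSO low. Detection: immunofluorescence imaging. Buffer or medium: EGM-2, gelatin.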
DENV2 CPE rescue: inhibitors of DENV2 cytopathic effect; AID 651640; hit rate 1.7% among 350,000; CPE inhibition, % at 9.99 µM; DENV2-infected cells, cytopathic effect rescue, plate reader; in the data active = CPE inhibition above about 20%, passing the limit was not always enough; inconclusive = no clear call, values can overlap the other calls; tested in BHK-21 cells;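 note: 0% = median of neutral control wells and 100% = median of positive control wells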
An asterisk follows results filed as active; u = inconclusive; x = not tested or not shown.

Labels used below: A = Cneo AK release; B = Yeast UUG start; C = E-sel inducer; D = DENV2 CPE rescue
canonical_smiles: Cc1ccc(Nc2nc(NCCO)nc(N3CCCC3)n2)cc1
  A: 1; B: -4; C: 1; D: 60*
canonical_smiles: COc1ccccc1Nc1nc(NCCO)nc(N2CCCC2)n1
  A: 3; B: -4; C: 0; D: -1
canonical_smiles: COc1ccccc1Nc1nc(NCCCCO)nc(N2CCCC2)n1
  A: -1; B: 1; C: 0; D: 86*
canonical_smiles: C[C@H](NC(=O)[C@H]1[C@H](CO)[C@H]2Cn3c(cccc3=O)[C@H]2N1CC1CCCCC1)c1ccccc1
  A: x; B: x; C: -1; D: -9
canonical_smiles: Cc1nn(Cc2ccc(Cl)cc2)c(C)c1NC(=O)c1ccc([N+](=O)[O-])cc1
  A: 0; B: -4; C: x; D: 34*
canonical_smiles: O=C(C[C@H]1CC[C@H]2[C@@H](COC[C@H](O)CN2Cc2nccs2)O1)NCc1ccccc1F
  A: 0; B: 2; C: 0; D: 12
canonical_smiles: O=C(Nc1ccc2oc(=O)ccc2c1)c1ccc(-c2cccc([N+](=O)[O-])c2)o1
  A: 1; B: -17; C: 1; D: 27*
canonical_smiles: O=C(Nc1ccc2oc(=O)ccc2c1)c1ccc(-c2cccc(Cl)c2)o1
  A: x; B: x; C: 0; D: 0
canonical_smiles: C/C=C/c1ccc([C@@H]2[C@@H](CNC(=O)c3ccccc3)N(C(C)=O)[C@H]2CO)cc1
  A: 81*; B: -9; C: 0; D: -8
canonical_smiles: C/C=C/c1ccc([C@@H]2[C@H](CO)N(C(=O)Cc3ccncc3)[C@H]2CNC(C)=O)cc1
  A: -1; B: -2; C: 0; D: 31*
canonical_smiles: C/C=C/c1ccc([C@H]2[C@@H](CO)N(CC3CC3)[C@@H]2CNC(=O)NC(C)C)cc1
  A: x; B: x; C: 0; D: 24*
canonical_smiles: C/C=C/c1ccc([C@@H]2[C@@H](CO)N(C(=O)CC)[C@@H]2CNC(=O)C2CC2)cc1
  A: 1; B: 12; C: 0; D: 2
canonical_smiles: C/C=C/c1ccc([C@H]2[C@@H](CO)N(C(=O)CC)[C@@H]2CNC(=O)C2CC2)cc1
  A: 91*; B: 13; C: 0; D: 15
canonical_smiles: C/C=C/c1ccc([C@@H]2[C@@H](CNC(C)=O)N(C(=O)Cc3cccnc3)[C@H]2CO)cc1
  A: 2; B: 0; C: 0; D: 6
canonical_smiles: C[C@@H]1CCCCO[C@@H](CN(C)CC2CC2)[C@H](C)CN([C@@H](C)CO)C(=O)c2cc(NC(=O)CCCN(C)C)ccc2O1
  A: x; B: x; C: 0; D: 12
canonical_smiles: C/C=C/c1ccc([C@@H]2[C@@H](CNC(=O)C3CCC3)N(C(=O)NCCC)[C@H]2CO)cc1
  A: 103*; B: -3; C: 0; D: -9
canonical_smiles: C[C@@H]1CCCCO[C@@H](CN(C)Cc2ccncc2)[C@H](C)CN([C@H](C)CO)C(=O)c2cc(NS(=O)(=O)c3cccs3)ccc2O1
  A: 0; B: -5; C: 0; D: -7
canonical_smiles: COc1ccc(NC(=O)C2C(c3ccc4c(c3)OCO4)=Nc3ccccc3N2C(=O)c2cccc(C(F)(F)F)c2)cc1 (centres undefined)
  A: x; B: x; C: 0; D: -2
canonical_smiles: COc1ccc(NC(=O)C2C(c3ccc4c(c3)OCO4)=Nc3ccccc3N2C(C)=O)cc1 (centres undefined)
  A: x; B: x; C: 0; D: 27*
canonical_smiles: Cc1ccc(S(=O)(=O)Nc2ccc(O)c3ncccc23)cc1
  A: -4; B: -32; C: x; D: 107*
canonical_smiles: O=C1C=C(c2c(O)ccc3ccccc23)c2ccccc2C1=O
  A: x; B: x; C: 0; D: -2
canonical_smiles: O=C1C=C(O)c2cccc(O)c2C1=O
  A: 2; B: -9; C: x; D: 44*
canonical_smiles: C[C@H]1CN([C@@H](C)CO)S(=O)(=O)c2ccc(C#CC3CCCC3)cc2O[C@H]1CN(C)Cc1ccccc1C(=O)O
  A: -3; B: 24; C: x; D: 0
canonical_smiles: CNC(=O)C[C@H]1CC[C@H]2[C@H](COc3ccc(NC(=O)c4ccc(F)cc4)cc3C(=O)N2C)O1
  A: -3; B: 3; C: 0; D: 5
canonical_smiles: CN1c2ccc(Br)cc2[C@@H]2[C@@H](CCN2C(=O)C2CCCCC2)[C@@H]1CO
  A: 57; B: 29; C: 0; D: 67*
canonical_smiles: CN1c2ccc(C#Cc3cccnc3)cc2[C@@H]2[C@@H](CCN2C(=O)C2CCC2)[C@H]1CO
  A: x; B: x; C: 64*; D: -8
canonical_smiles: CN1c2ccc(C#Cc3cccnc3)cc2[C@@H]2[C@@H](CCN2C(=O)C2CCCC2)[C@@H]1CO
  A: x; B: x; C: 0; D: u
canonical_smiles: O=C(NCC[C@H]1CC[C@@H](NC(=O)C2CCCC2)[C@H](CO)O1)Nc1ccc(Cl)cc1
  A: -1; B: 10; C: 0; D: 8
canonical_smiles: C[C@@H]1CN([C@H](C)CO)C(=O)c2cc(NS(C)(=O)=O)ccc2O[C@@H](C)CCCCO[C@@H]1CN(C)C(=O)C1CCCCC1
  A: x; B: x; C: 0; D: x
canonical_smiles: Cc1ccc(S(=O)(=O)Nc2ccc3c(c2)C(=O)N([C@H](C)CO)C[C@H](C)[C@@H](CN(C)C(=O)Nc2cccc4ccccc24)O3)cc1
  A: 0; B: -3; C: 0; D: 41*
canonical_smiles: C[C@@H]1CCCCO[C@@H](CN(C)C(=O)Nc2cccc3ccccc23)[C@H](C)CN([C@@H](C)CO)C(=O)c2cc(NS(=O)(=O)c3cn(C)cn3)ccc2O1
  A: -16; B: -4; C: 0; D: 21*

Compound profiles, as listed above:
Record of CN1c2ccc(C#Cc3cccnc3)cc2[C@@H]2[C@@H](CCN2C(=O)C2CCC2)[C@H]1CO : Cneo AK release = x; Yeast UUG start = x; E-sel inducer = 64*; DENV2 CPE rescue = -8
Record of O=C(NCC[C@H]1CC[C@@H](NC(=O)C2CCCC2)[C@H](CO)O1)Nc1ccc(Cl)cc1 : Cneo AK release = -1; Yeast UUG start = 10; E-sel inducer = 0; DENV2 CPE rescue = 8
